From US9175357B2, “Fragment ligated inhibitors selective for the polo box domain of PLK1” (UNIVERSITY OF SOUTH CAROLINA, priority 2011, dated 2015)

Protein sequences, listed by entry. Tags and fused reporters are not part of them. Residues count along the entry.
UniProt P53350, 367-603: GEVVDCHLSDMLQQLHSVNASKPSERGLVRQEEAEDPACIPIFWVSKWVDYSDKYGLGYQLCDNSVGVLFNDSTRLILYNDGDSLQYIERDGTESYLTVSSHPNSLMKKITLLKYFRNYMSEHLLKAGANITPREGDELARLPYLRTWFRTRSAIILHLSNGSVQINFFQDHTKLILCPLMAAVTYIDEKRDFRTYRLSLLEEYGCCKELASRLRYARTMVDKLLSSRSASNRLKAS

Target: PLK1 PBD protein (residues 367-603) (Homo sapiens (Human), UniProt P53350)
Assay: Competitive fluorescence polarization (FP) binding assay, PLK1 PBD

SMILES: CC(=O)N1CCC[C@H]1C(=O)N[C@@H](CC(C)C)C(=O)N[C@@H](Cc1c[nH]cn1)C(=O)N[C@@H](CO)C(=O)N[C@H](C(=O)N[C@@H](C)C(=O)O)[C@@H](C)OP(=O)(O)O [compound 5743, Ac-PLHS[pT]A, reference compound]
- IC50 (Table 2, FP assay, read-out: IC50): 2 µM
- IC50 (read-out: PLK1 PBD IC50, Table 1): 2 µM

Read-outs that look alike come from different tables or passages of the source.
